Assay results as given in patent US8859544B2, “Indolizine derivatives, process for the preparation thereof and therapeutic use thereof” (Sanofi, priority 2010, dated 2014).

Tested on: inflammatory angiogenesis in mice
Experiment: Model of inflammatory angiogenesis in mice
Type: in vivo
Details: 10 or 30 mg/kg, after one week of daily treatment
Procedure: The model is developed on OF1 female mice (Charles River Laboratories) weighing approximately 25 g, and by groups of 12. The animals are anaesthetized with sodium pentobarbital (60 mg/kg; Sanofi Nutrition Santé animale)) intraperitoneally. An air pocket is created on the back of the mouse by subcutaneous injection of 3 ml of air. […] Seven days later, the mice are again anaesthetized and placed on a hot plate at 40° C. One ml of carmine red (Aldrich Chemicals, 5% in 10% of gelatin) is injected into the tail vein. The animals are then placed at 4° C. for 2-3 hours. The skins are then taken and dried for 24 h in an oven at 56° C. The dry tissues are weighed and placed in 1.8 ml of digestion solution (2 mM dithiothreitol, 20 mM Na2HPO4, 1 mM EDTA, 12 U/ml papain) for 24 h. The dye is then dissolved in 0.2 ml of 5M NaOH. The skins are centrifuged at 2000 rpm for 10 min at ambient temperature. The supernatants are filtered through 0.2 μm cellulose acetate membranes. The filtrates are read in a spectrophotometer at 492 nm against a carmine red calibration range. […] The results are expressed as mean values (±sem). […]
The FGF-R antagonists are evaluated between 1 and 50 mg/kg using methylcellulose/tween (0.6% v/v) as vehicle or any other vehicle which allows the active ingredient to be solubilized. […]

## COc1c(C)c(C(=O)c2ccc3[nH]c(=O)n(CC(=O)N(C)C)c(=O)c3c2)n2ccccc12 [Compound No. 35, 2-{6-[(1-Methoxy-2-methylindolizin-3-yl)carbonyl]-2,4-dioxo-1,4-dihydroquinazolin-3(2H)-yl}-N,N′-dimethylacetamide]
  weight of the granuloma (dry weight of the skin): significantly reduce
